AlphaSeq binding of Ab-14 light chain variants to a spike HR2 peptide

From the AlphaSeq antibody data of Li et al. 2023 (doi:10.1038/s41467-023-39022-2), copy in the FLAb collection.

Binding partner: SARS-CoV-2 spike HR2 peptide, sequence PDVDLGDISGINAS.

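The starting antibody came from a phage panning campaign against this peptide. These sequences belong to a second round, designed from the earlier measurements on random variants of the parent. Several design methods are mixed in this list. Affinity was read by AlphaSeq, a pooled yeast mating assay with surface-displayed partners. The frequency of each diploid, read from paired DNA barcodes, reflects how well the two displayed proteins bind. Scores were corrected for input abundance and mapped to Kd with protein pairs of known affinity run in the same pool. There are six technical replicates.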

Parent scFv Ab-14: VH joined to VL by a (GGGGS)3 linker. Changes lie in the light chain CDRs alone.
VH: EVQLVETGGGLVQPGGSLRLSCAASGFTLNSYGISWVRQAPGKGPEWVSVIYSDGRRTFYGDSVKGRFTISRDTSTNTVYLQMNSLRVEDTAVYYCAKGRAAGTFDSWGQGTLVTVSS
VL: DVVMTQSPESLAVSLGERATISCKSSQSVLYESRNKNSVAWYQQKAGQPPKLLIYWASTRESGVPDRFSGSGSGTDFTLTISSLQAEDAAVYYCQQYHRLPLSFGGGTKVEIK

Variants are written as CDR1, CDR2 and CDR3 of the light chain (limits as in the source). Parent: KSSQSVLYESRNKNSVA, WASTRES, QQYHRLPLS.
Variants here have at most six changes.
The Kd shown is the geometric mean over detected replicates; a lower Kd is a better binder.
"nd" means that the variant was in the library but no mating with the target was seen in any replicate; the authors take this as a sign of poor binding, and no number exists.
The list is sorted by this average, lowest first, undetected variants last.

Variant KLSQSWMYESRNKNSVA / NASTRES / QQYHRLPLS showed 180 pM (6 of 6 replicates).
Variant KGSQWQLYESRNKNNVA / NASTREM / QQYHRLPLS showed 350 pM (6 of 6 replicates).
Variant KVSQSVLYESRNKNSVA / NASLRES / QQYHRLPLS showed 390 pM (6 of 6 replicates).
Variant KLLQSVLYESRNVNSVA / HASTRED / QQYHRLPLS showed 410 pM (6 of 6 replicates).
Variant KSLQSSLYESRNKNSVA / HASTRED / QQYHQLPLS showed 430 pM (6 of 6 replicates).
Variant KLSQSGLYESRMKNSVA / NASTRES / QQYHRLPLS showed 590 pM (6 of 6 replicates).
Variant KLSQMWLYESRNKNSVA / NASQRES / QQYHRLPLS showed 630 pM (6 of 6 replicates).
Variant KISQSVLGEQRNKNSVA / DASTRES / QQYHRLPLS showed 710 pM (6 of 6 replicates).
Variant KISQQVLYESRNKNSVA / DASTRES / QQYHRLPLS showed 720 pM (12 of 12 replicates).
Variant KSPQVYLYESRNKNSVA / GASTRES / QQYHRLPLS showed 760 pM (6 of 6 replicates).
Variant KSSCGVLYESRNKNSVA / GASTRES / QQYHRLPLS showed 850 pM (6 of 6 replicates).
Variant KSSQSVLYENRNKNSVA / DASTRES / QQYHRLPLS showed 930 pM (6 of 6 replicates).
Variant KFSQSVLYESTTTNSVA / NASTRES / QQYHRLPLS showed 940 pM (6 of 6 replicates).
Variant HSSQSVLYESRNKNSVA / DASTRES / QQYHRLPLS showed 1.0 nM (12 of 12 replicates).
Variant KFSQSVQYESTNKNSVA / RASTRET / QQYHRLPLS showed 1.5 nM (6 of 6 replicates).
Variant KLSQSDLYESRWKNSVA / GASQRES / QQYHRLPLS showed 1.7 nM (6 of 6 replicates).
Variant KMSQSVLYESRNKNSVA / NASTRES / QQYHRLHGS showed 2.2 nM (6 of 6 replicates).
Variant KSSQSVLYESRNKNSVA / GASTRES / QQYHRLPLS showed 4.0 nM (12 of 12 replicates).
Variant KSSQSVLYEGRNKNSVA / QASTRVP / QQYHRLPLS showed 4.2 nM (6 of 6 replicates).
Variant KVSKSVLFESRNKNSVA / NASTRES / QQYHRLPLS showed 4.2 nM (6 of 6 replicates).
Variant KLRQSTLYETRNKNSVA / WASTREE / QQYHRLPLS showed 6.8 nM (6 of 6 replicates).
Variant KMQQSGSYESRNKNSVA / WASTRES / QQYHRLPLP showed 8.1 nM (6 of 6 replicates).
Variant KLSQSVLQLWRNKNSVA / QASHRES / QQYHRLPLS showed 18 nM (6 of 6 replicates).
Variant KSSQSVLWEYRNKNSVA / QASTRES / QQYHRLPLS showed 22 nM (6 of 6 replicates).
Variant KSDQSVLPESRNKNSVA / KASTRES / QQYHRLPGS showed 37 nM (6 of 6 replicates).
Variant DSSQSVLYEGRNLNSVA / WASTRES / QQYHRLPLS showed 43 nM (2 of 6 replicates).
Variant KSSQSVLYESVNKNSVA / WASTRES / QQYHRKPLS showed 100 nM (3 of 6 replicates).
Variant KSSQSQLYESRNKNSVA / GASTRES / QQYHRLALS showed 110 nM (1 of 6 replicates).
Variant KSSQSVGYESRNKNSVA / CASIRES / QQYHRLPLS showed 230 nM (6 of 6 replicates).
Variant KSSQSFLYESRNKNSIA / WASTRES / QQYHRLPLS showed 240 nM (3 of 6 replicates).
Variant KSSQSVLYESRNKNSVA / WASTRES / QQYHRWPLS showed 410 nM (11 of 30 replicates).
Variant KSQQSQLYESRNFNSVA / HASTRLD / QQYHRLPLS showed 1.4 µM (5 of 6 replicates).
Variant KSIQSGLYESDNKNSVA / WASTRES / QQYMRLPTS showed nd (0 of 6 replicates).
Variant KVSQSFLYESRNKNQVA / GASTRES / QQYHRLTLS showed nd (0 of 6 replicates).
Variant KSSQSFLYESRNKNSVA / GASTRES / QDYHRLTLS showed nd (0 of 6 replicates).
Variant KSSQSVLYESRNFNSVA / DASLRES / QQVHRLPLS showed nd (0 of 6 replicates).
Variant KSSQSELYESRNKNSVA / WASTRES / GQYVRLPLS showed nd (0 of 6 replicates).

Top 4 of the variants detected in all replicates, tightest first:

CDR-L1	CDR-L2	CDR-L3	Kd	detected
KLSQSWMYESRNKNSVA	NASTRES	QQYHRLPLS	180 pM	6/6
KGSQWQLYESRNKNNVA	NASTREM	QQYHRLPLS	350 pM	6/6
KVSQSVLYESRNKNSVA	NASLRES	QQYHRLPLS	390 pM	6/6
KLLQSVLYESRNVNSVA	HASTRED	QQYHRLPLS	410 pM	6/6

Three control strains display no target. For all light chain designs, 4% of the pairings with them gave a signal, with a median of 430 nM and one signal in twenty below 38 nM, so weak values seen in few replicates may be background.
A sequence measured in both rounds can read differently, since the two assays cover different ranges.
Some sequences occur more than once in the pool; their replicates are pooled.
The authors averaged sequences with at least three values out of six and counted those with two or fewer as poor binders.